Data taken from PubChem BioAssay AID1347120 (National Center for Advancing Translational Sciences (NCATS), 2019).
This is a selection; strong and weak results do not stand in their true shares. Results filed as inconclusive are left out. Active and inactive are the calls of the source. Calls follow the shape of the dose curve; as a rule, active = well fitted activation curve with a large enough effect; inconclusive = small, poorly fitted or top-dose-only effect; inactive = no such curve, though single readings can be large or run the other way.

Assay: qHTS for Suppressors of FUS Proteinopathy: Primary screen using FUS-linked yeast assay;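 also: plate controls were DMSO vehicle for no effect and reference control for full effect; nearly all actives have a fitted effect of over 55% in size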
Settings: S. cerevisiae FUS-expressing, OD600, 24 h; at 76.6 µM (top of the series)
Description: Several widespread neurodegenerative diseases, including Alzheimer disease, Huntington disease, Frontotemporal Lobar Degeneration (FTLD) and Amyotrophic Lateral Sclerosis (ALS), share a common pathological feature, namely accumulation of specific protein aggregates in diseased tissue. These diseases which is associated with protein misfolding (proteinopathies) have become increasingly problematic as the population ages and life expectancies are extended. Most proteinopathies are currently incurable, a situation confounded by the fact that the basis of neurodegeneration is generally poorly understood. There exists urgent and significant need to find therapeutics that can inhibit the toxicity associated with protein aggregation. A novel approach to understand the underlying mechanisms of neurodegenerative diseases has recently emerged in which the disease conditions are modeled in the yeast (Saccharomyces cerevisiae), a tractable eukaryotic organism with conserved protein quality control mechanisms. Yeast offers quick and reliable genetic manipulations and can be easily tailored to high-throughput screening (HTS).
For this project, a yeast model of the FUS proteinopathies (a spectrum of neurodegenerative diseases that include ALS and a subtype of FTLD) was generated and employed. The cytoplasmic accumulation of the DNA/RNA-binding protein FUS (also known as TLS) is causative to both familial and sporadic forms of ALS and FTLD. This yeast model recapitulates neuronal pathology by showing severe cytotoxicity associated with cytoplasmic accumulation of FUS aggregates and a specific interaction between FUS and TDP-43, another ALS-associated protein. […] Specifically, the cellular accumulation of misfolded FUS that disrupts RNA homeostasis in both yeast and higher eukaryotes. This model was validated to be suitable for quantitative HTS (qHTS) use for finding genetic or chemical factors that restore growth. […] Identified compounds that inhibits FUS-yeast toxicity is flagged, re-acquired, and validated for further investigation and optimization.
NIH Chemical Genomics Center [NCGC]
NIH Molecular Libraries Probe Production Centers Network [MLPCN]
Assay Submitter (PI): Frank Shewmaker PhD, Uniformed Services University of the Health Sciences
Compound CP55940 was used as the positive control. Column 1 was treated with CP55940 titration from 92uM (final concentration, 1:2 dilution), while Column 2 was treated with top dose 92uM. Columns 3 and 4 were treated with DMSO only as negative control to assess background and noise signal.
Four hundred fifty microliter of cultured yeast (in 20mL rich medium) provided by Dr. Shewmaker lab was incubated at 30C at 99% humidity for 3hr. The culture was then spun down at 4000rpm for 5min and the cell pellet was resuspended in 2mL of Sdmin Media + ALU(330) + 2.5% Raffinose. One hundred microliter of the suspension was added to 900uL of water and OD of the solution was obtained. Twenty mL of responding medium (provided by Shewmaker lab) + 2.5% raffinose was added to ensure cell density of 0.1; the solution was incubated overnight. Working cell solution (FUS-yeast in Sdmi + Sdmi + 1X ALU + 2% galactose media) was prepared (final OD at 0.005) and 3uL was dispensed in a 1536-well Aurora high based clear bottom assay plates. Controls and library compounds (at various final concentrations from 40uM to 0.32uM) were added using a 1536-well pin array using the Kalypsys pin-tool. The plates were then incubated for 24hrs in a cell-culture incubator (30C; 99% humidity). Absorbance at 600nm was then read using the PerkinElmer ViewLux plate reader.

Structure (SMILES) | growth rescue (activation)
COc1ccccc1CNC(=O)COC(=O)C(O)(c1ccccc1)c1ccccc1 | inactive: 3.88%
CC1(CBr)Cn2c(nc3ccccc3c2=O)S1 (stereo not drawn) | inactive: 4.62%
CN(C(=O)Cc1ccc(Cl)c(Cl)c1)[C@@H]1CCCC[C@H]1N1CCCC1 | inactive: -24.8%
CC(C)/C=N\N=C(\N)N[N+](=O)[O-] | inactive: -24.8%
CN(CCCl)Cc1cc(Cl)c(NC2=NCCN2)c(Cl)c1 | inactive: -15.5%
CCOP(=O)(Nc1ccc(C)cn1)OCC | inactive: -7.44%
CCOP(=O)(NC(=NC(C)c1ccccc1)NC(C)c1ccccc1)OCC (stereo not drawn) | inactive: 26.7%
CCC1=CC2Cc3nc4ccc(Cl)cc4c(N)c3C(C1)C2 (stereo not drawn) | inactive: -11.5%
O=P1(Nc2ccccn2)COc2ccccc2OC1 | inactive: -3.93%
CC(C)(C)C(=O)NC(Sc1ncccn1)C(Cl)(Cl)Cl (stereo not drawn) | inactive: -21.7%
Clc1n[nH]nc1-c1nn[nH][15n]1 | inactive: 8.22%
O=P1(N(CCCl)CCCl)NCCC(C(F)(F)F)O1 (stereo not drawn) | inactive: -31.9%
O=P1(Nc2ncccn2)COc2ccccc2OC1 | inactive: -20.4%
Cc1ccc(S(=O)(=O)N(CCCN)CCCc2c(C)nc(N)[nH]c2=O)cc1 | inactive: -12.6%
NS(=O)(=O)c1cccc(NC(=O)COC(=O)C(O)(c2ccccc2)c2ccccc2)c1 | inactive: -5.08%
O=P1(Nc2ccc(Br)cn2)COc2ccccc2OC1 | inactive: 19.3%
O=[As](O)(c1cccs1)c1cccs1 | inactive: -35%
Cc1ccc(OCC(=O)OC2CN3CCC2CC3)cc1 (stereo not drawn) | inactive: 5.87%
Nc1cccc([As](=O)(O)c2ccccc2)c1 | inactive: -17%
Cc1ccc(C(=O)OC2CN3CCC2CC3)cc1 (stereo not drawn) | inactive: -30.6%
CC1CCC(C(C)C)C(OP(=O)(Nc2ccccn2)c2ccccc2)C1 (stereo not drawn) | inactive: 32.4%
Cc1nn(-c2ccccc2)c2c1P(=O)(N1CCOCC1)N(C)C(c1ccccc1)=N2 (stereo not drawn) | inactive: -5.72%
CCCC1OP(=O)(Nc2ccccc2)OCC1CC (stereo not drawn) | inactive: 12.3%
O=C(/C=C/c1ccccc1)OC1CN2CCC1CC2 (stereo not drawn) | inactive: 14%
CN(C)C1(CNC(=O)c2ccc(S(C)(=O)=O)cc2)CCCCC1 | inactive: -15.2%
NC(=O)Nc1ccc([As](=O)(O)O)cc1 | inactive: -16.7%
CN(C(=O)Cc1ccc(Cl)c(Cl)c1)[C@H]1CC[C@@]2(CCCO2)C[C@@H]1N1CCCC1 | inactive: -17.1%
CN(C)C(=O)c1cc([N+](=O)[O-])cc2c1-c1c(cc([N+](=O)[O-])cc1[N+](=O)[O-])C2=O | inactive: 0.723%
